We go through one compound from ChEMBL document CHEMBL2163301, “Substrates for efficient fluorometric screening employing the NAD-dependent sirtuin 5 lysine deacylase (KDAC) enzyme” (J Med Chem, 2012).

The chains behind the UniProt entries cited, without tags or fusion partners. Where a name states a change or a piece, a line headed by the entry shows the natural chain unless it says otherwise.
UniProt Q9NXA8: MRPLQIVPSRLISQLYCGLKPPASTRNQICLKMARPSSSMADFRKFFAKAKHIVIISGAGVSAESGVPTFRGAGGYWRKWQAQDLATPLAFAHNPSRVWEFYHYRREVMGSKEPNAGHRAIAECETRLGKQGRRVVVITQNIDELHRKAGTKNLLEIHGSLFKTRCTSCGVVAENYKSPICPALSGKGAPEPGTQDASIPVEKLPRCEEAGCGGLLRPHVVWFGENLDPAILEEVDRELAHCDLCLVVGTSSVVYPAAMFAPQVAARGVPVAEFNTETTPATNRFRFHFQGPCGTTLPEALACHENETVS

pIC50: −log10 of the molar value. Where only a bound is given, the exact number is not on record here.

For the experiment, the target named is NAD-dependent protein deacylase sirtuin-5, mitochondrial (Homo sapiens, UniProt Q9NXA8). The experiment is described as follows: Inhibition of SIRT5. The method in brief: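 Recombinant SIRT5 at 50 ng/well (~30 nM, 50 μL) with succinyllysine AMC substrate and NAD in Tris-Cl pH 8.0/BSA buffer. Inhibitor dilutions were prepared in assay buffer from DMSO stocks. IC50 from nonlinear regression of dose–response, two assays in duplicate.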

With `CCCC(CCC)C(=O)O` [VALPROIC ACID], the pIC50 is less than 4.00.

As a reminder, the pIC50 is the IC50 on a negative log10 scale, so that one unit is a factor of ten. Read a low pIC50 as a large IC50.
